How the values were obtained:
[1] = tested on: Tg(Runx1:FLT3^ITDIDH2^R172K) and Tg(Runx1:FLT3^ITDIDH2^R140Q) embryos; test: Drug treatment of double transgenic embryos, SBB staining as surrogate for embryonic myelopoiesis; assay type: in vivo, zebrafish; settings: drugs at 0.01 μM, 0.1 μM and 1 μM from 6 hpf, stained at 4 dpf
Description: (§1) Drugs at three concentrations (0.01 μM, 0.1 μM and 1 μM) were added to the embryos in E3 medium with (1-phenyl-2-thiourea) PTU at 6 hpf, and the medium was changed every 24 hours. At 4 dpf, embryos were collected and fixed in 4% PFA for SSB staining. […] Adult zebrafish were anesthetized using 0.015% Tricaine. […] Treated zebrafish were then placed into an individual recovery tank with fresh sterile fish water immediately after the gavage procedure. The drug regimen was repeated daily for 14 days.

[2] = tested on: FLT3^ITD and IDH2 double mutant zebrafish; test: 14-day oral gavage treatment of adult double transgenic leukemic fish, kidney marrow analysis; assay type: in vivo; settings: daily oral gavage 14 days, quizartinib 10 mg/kg, enasidenib 100 mg/kg
Description: (§2) Zebrafish WKM were harvested from two to twelve months old transgenic or wildtype TU fish. The collected KM was dissociated in 0.9×PBS with 5% fetal bovine serum (FBS) by pipetting and filtered through a 40 μm nylon cell strainer (Corning, NY, USA). The cells were then centrifuged at 500 g for 5 minutes, resuspended, filtered, and washed with 0.9×PBS with 5% (FBS) at least twice. Flow cytometry of the KM was performed using a MoFlo XDP flow cytometer (Beckman coulter). The data was analyzed using FlowJo™ v10.6.1 software. Cytospin preparations were made with 2×10^5 to 3×10^5 cells cytocentrifuged at 400 rpm for 5 minutes onto microscope glass slides (Thermo scientific). The glass slides were dried at room temperature for more than 12 hours, stained with Wright-Giemsa stain, and imaged with Nikon DS-Ri2 digital camera fitted to a Nikon Eclipse Ni-U microscope.
as §1

[3] = tested on: Tg(Runx1:FLT3^ITDIDH2^R140Q) zebrafish; test: 14-day oral gavage treatment of adult Tg(Runx1:FLT3^ITDIDH2^R140Q) fish; assay type: in vivo; settings: adult Tg(Runx1:FLT3^ITD IDH2^R140Q) double mutant; treatment with Quizartinib and/or Enasidenib, 14 days
Description: as §2, §1

[4] = tested on: Tg(Runx1:FLT3^ITDIDH2^R172K) zebrafish; test: 14-day oral gavage treatment of adult Tg(Runx1:FLT3^ITDIDH2^R172K) fish; assay type: in vivo; settings: adult Tg(Runx1:FLT3^ITDIDH2^R172K) double mutants; treatment with Quizartinib and/or Enasidenib, 14 days
Description: as §2, §1

`CC(C)(C)c1cc(NC(=O)Nc2ccc(-c3cn4c(n3)sc3cc(OCCN5CCOCC5)ccc34)cc2)no1` [quizartinib, Quizartinib] was tested, and the “embryonic myelopoiesis (cytochemical staining with SBB)” value [1] was “ameliorated the increase in myelopoiesis”, the “blast counts in KM” value ([2]; alone or combined) was “reduced blast counts in KM” and the “erythroid cells in KM / erythropoiesis” value ([2]; alone or combined) was “significant increase in neutrophils and erythroid”. The “neutrophils in KM” value ([2]; alone or combined) was “significant increase in neutrophils”, the “cellularity in KM” value ([2]; monotherapy) was “significantly reduced cellularity” and the spleen size [3] was “no changes were observed in spleen size”. For the same compound, the spleen size [4] was “decreased spleen sizes”.
